The values below come from patent EP0451834B1, “Alpha-mannosidase and fucosidase inhibitors” (MERRELL PHARMACEUTICALS INC., priority 1990, dated 1991).

This test deals with T1, α-Mannosidase (Jack bean) (Canavalia ensiformis, UniProt C0HJB3).
T1 sequence (C0HJB3 1-981): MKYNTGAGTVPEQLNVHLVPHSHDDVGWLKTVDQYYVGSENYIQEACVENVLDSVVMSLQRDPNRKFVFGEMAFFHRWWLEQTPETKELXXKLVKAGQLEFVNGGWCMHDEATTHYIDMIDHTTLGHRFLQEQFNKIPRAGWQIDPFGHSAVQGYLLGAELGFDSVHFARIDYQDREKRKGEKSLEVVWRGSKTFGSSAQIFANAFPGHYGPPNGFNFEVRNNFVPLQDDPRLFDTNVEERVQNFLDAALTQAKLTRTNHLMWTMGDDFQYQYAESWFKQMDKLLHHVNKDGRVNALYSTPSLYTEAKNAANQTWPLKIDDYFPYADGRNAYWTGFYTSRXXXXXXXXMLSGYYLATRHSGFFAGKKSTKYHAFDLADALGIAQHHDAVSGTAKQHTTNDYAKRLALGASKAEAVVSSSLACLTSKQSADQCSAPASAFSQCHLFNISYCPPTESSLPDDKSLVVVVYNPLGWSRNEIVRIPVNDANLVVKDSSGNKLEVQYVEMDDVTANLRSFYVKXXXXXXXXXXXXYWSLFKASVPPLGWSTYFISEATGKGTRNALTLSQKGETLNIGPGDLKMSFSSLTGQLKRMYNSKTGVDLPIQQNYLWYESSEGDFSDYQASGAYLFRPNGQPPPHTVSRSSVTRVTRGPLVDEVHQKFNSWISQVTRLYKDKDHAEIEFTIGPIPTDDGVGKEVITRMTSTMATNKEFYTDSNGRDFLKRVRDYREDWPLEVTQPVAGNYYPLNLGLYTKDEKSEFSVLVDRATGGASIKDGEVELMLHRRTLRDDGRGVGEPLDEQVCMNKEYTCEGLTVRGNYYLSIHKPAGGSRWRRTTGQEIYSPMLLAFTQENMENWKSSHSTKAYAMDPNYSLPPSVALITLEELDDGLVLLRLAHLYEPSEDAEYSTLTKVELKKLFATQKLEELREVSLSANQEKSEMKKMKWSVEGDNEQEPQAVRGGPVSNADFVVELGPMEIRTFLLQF
The experiment in a line: Mannosidase screening assay (p-nitrophenyl-α-mannopyranoside substrate, absorbance at 405 nm). Format: biochemical. On the procedure: The compounds of this invention are alpha-mannosidase and alpha-fucosidase inhibitors. This can be demostrated by the ability of the compound to inhibit Jack bean mannosidase or mannosidase II as follows: Mannosidase Screening Assay (Kang, et al., Plant Physiol. 71:551-554 (1983)). Activities of mannosidase are first screened with Jack bean enzyme using p-nitrophenyl substrate as follows using a 96-well microplate. Total Rxn mix 200µl. • 1. Add compounds to be tested and dilute to 100µl with H2O. • 2. Add 25µl of 1M sodium acetate buffer pH 4.5 containing 10mM ZnCl2. • 3. Add 25µl of enzyme or approximately 0.05 µg protein. • 4. Mix and incubate at R.T. for 30 min. • 5. Add 50µl of 10 mM p-nitrophenyl-α-mannopyranoside in H2O to start the Rxn and incubate 37° for 30 min. Stop reaction by addition 100µl of 0.2M (2%) sodium carbonate solution (pH∼12). Read absorbance at 405 nm. Mannosidase II Assay (Elbein, et al., Methods Enz. Vol. 179, P.468). The compounds which show activity against Jack bean are checked against purified α-mannosidase II as follows with 100 µl Total Rxn Volume. • 1. Add compounds to be tested and dilute to 60µl with H20. • 2. Add 10µl of 0.5 M MES buffer pH 6.0. • 3. Add 10µl of 1% Triton X-100. • 4. […] Stop reaction with 20µl of acetic acid, add 1 ml of Con A Buffer B, and determine the radioactivity released by Con A column chromatography.

On to `O[C@H]1[C@H]2[C@H](O)CCCN2C[C@H]1O` [Swainsonine], for which the IC50 was 86.6 nM.
